# From ChEMBL document CHEMBL2321760, “Design, synthesis, and biological evaluation of a series of benzo[de][1,7]naphthyridin-7(8H)-ones bearing a functionalized longer chain appendage as novel PARP1 inhibitors” (J Med Chem, 2013)
# The chains behind the UniProt entries cited, without tags or fusion partners.
# UniProt P09874, whole entry: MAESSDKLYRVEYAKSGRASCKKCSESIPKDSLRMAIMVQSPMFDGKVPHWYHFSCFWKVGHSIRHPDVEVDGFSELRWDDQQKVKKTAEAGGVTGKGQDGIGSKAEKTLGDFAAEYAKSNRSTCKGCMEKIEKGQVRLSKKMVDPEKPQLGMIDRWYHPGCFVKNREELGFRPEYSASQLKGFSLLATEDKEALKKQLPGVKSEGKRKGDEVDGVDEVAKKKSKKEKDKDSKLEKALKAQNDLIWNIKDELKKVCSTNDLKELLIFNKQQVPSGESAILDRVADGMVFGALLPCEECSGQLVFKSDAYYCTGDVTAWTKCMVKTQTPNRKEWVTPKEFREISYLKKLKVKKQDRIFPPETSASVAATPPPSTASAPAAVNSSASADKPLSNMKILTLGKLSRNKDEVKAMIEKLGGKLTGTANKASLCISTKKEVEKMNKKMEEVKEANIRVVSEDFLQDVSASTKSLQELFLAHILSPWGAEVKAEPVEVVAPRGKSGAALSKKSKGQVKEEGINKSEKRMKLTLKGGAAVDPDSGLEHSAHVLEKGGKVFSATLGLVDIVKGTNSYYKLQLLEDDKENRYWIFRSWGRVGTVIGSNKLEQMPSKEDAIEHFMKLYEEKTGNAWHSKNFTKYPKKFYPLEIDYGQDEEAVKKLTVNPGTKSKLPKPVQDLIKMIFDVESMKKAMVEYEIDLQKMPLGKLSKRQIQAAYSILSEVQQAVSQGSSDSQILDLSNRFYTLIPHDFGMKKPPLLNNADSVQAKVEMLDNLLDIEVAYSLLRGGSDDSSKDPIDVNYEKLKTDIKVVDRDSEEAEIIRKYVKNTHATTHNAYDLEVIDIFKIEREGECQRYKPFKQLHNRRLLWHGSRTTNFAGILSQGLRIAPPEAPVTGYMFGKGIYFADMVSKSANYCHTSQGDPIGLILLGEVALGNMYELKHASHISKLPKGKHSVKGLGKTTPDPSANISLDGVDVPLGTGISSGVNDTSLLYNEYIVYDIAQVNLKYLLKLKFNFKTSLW
# Biological target: Poly [ADP-ribose] polymerase 1 (Homo sapiens, UniProt P09874)
# Assay: Ratio of AZD2281 IC50 to compound IC50 for human recombinant PARP1
row,Ratio IC50,SMILES
1,2,O=C1NCC2c3c(cccc31)CCN2C(=O)C1CCN(C(=O)c2cc(Cc3n[nH]c(=O)c4ccccc34)ccc2F)CC1 (stereo not drawn)
2,13,O=C1NCC2c3c(cccc31)CCN2C(=O)c1cc(Cc2n[nH]c(=O)c3ccccc23)ccc1F (stereo not drawn)
3,2,O=C1NCC2c3c(cccc31)CCN2C(=O)c1cc(Cc2n[nH]c(=O)c3c2CCCC3)ccc1F (stereo not drawn)
